Test results from PubChem BioAssay AID588458 (Sanford-Burnham Center for Chemical Genomics, 2011).
This is a selection; strong and weak results do not stand in their true shares. The source made the active and inactive calls. No stated cut-off is given here; in the data, active means inhibition above about 50%; inactive means the rest.

The chains behind the UniProt entries cited, without tags or fusion partners. Residues count along the entry.
UniProt P26358, 504-1616 limits assumed: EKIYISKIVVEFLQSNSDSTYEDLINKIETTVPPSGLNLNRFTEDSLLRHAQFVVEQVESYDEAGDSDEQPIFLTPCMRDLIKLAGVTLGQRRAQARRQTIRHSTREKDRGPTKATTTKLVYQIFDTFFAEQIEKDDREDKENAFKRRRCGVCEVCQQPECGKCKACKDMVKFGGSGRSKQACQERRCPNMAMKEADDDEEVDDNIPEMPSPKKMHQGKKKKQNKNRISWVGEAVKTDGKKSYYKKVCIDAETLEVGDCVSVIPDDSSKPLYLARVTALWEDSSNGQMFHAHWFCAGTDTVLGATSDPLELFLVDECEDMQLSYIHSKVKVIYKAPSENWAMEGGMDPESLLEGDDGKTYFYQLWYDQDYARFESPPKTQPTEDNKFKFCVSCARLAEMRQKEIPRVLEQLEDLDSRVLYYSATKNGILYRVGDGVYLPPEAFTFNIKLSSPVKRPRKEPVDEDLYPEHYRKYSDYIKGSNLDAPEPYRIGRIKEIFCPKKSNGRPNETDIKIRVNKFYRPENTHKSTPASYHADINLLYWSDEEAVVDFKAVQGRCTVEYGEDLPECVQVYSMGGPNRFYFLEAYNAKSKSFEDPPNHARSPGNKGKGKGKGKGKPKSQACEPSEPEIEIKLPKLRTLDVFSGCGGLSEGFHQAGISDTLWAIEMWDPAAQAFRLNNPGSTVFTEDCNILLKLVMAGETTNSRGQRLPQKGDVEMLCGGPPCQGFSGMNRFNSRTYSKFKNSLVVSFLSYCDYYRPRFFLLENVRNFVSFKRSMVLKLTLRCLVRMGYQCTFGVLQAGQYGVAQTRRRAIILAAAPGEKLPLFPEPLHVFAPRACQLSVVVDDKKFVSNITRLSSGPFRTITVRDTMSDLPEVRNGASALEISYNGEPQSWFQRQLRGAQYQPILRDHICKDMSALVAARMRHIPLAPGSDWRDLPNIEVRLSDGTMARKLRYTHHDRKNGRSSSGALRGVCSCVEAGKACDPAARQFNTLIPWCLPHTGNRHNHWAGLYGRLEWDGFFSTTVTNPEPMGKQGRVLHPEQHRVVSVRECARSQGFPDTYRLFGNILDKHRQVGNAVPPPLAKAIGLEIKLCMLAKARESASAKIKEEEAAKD

Biological target: DNA (cytosine-5)-methyltransferase 1 (Homo sapiens) (UniProt P26358)
Experiment: human DNMT1 methyltransferase inhibitors, primary screen, biochemical, molecular beacon, fluorescence, HinP1I cleavage, uHTS (AID 588458)
Details: at 10 µM, hits give high values

SMILES	inhibition (reported as % activation of signal)
COc1ccccc1OP(C)(=O)Nc1ccc(C)cc1 (stereo not given)	inactive: -1.03%
CCOC(=O)c1ccc(NP(C)(=O)Oc2ccccc2)cc1 (stereo not given)	inactive: 1.7%
CP(=O)(Nc1ccccc1Br)Oc1ccccc1 (stereo not given)	inactive: 5.07%
COc1ccccc1OP(C)(=O)Nc1ccccc1 (stereo not given)	inactive: 2.4%
CP(=S)(Nn1cnnc1)Oc1ccccc1 (stereo not given)	inactive: 1.16%
Cc1cc(C)cc(OP(C)(=O)Nc2ccc(SC(F)(F)F)cc2)c1 (stereo not given)	inactive: -7.32%
CP(=O)(NC(=O)Nc1ccccc1)Oc1ccccc1 (stereo not given)	inactive: 0.91%
CCc1ccc(OP(C)(=O)N2CCN(c3ccc([N+](=O)[O-])cc3)CC2)cc1 (stereo not given)	inactive: -3.37%
CP(=O)(Oc1ccccc1)OC(c1ccccc1)C(F)(F)F (stereo not given)	inactive: -0.36%
CP(=O)(Nc1ccc(SC(F)(F)F)cc1)Oc1ccc(Cl)cc1 (stereo not given)	inactive: -7.79%
Cc1cccc(C)c1OP(C)(=O)Nc1ccc(SC(F)(F)F)cc1 (stereo not given)	inactive: 2.54%
Cc1ccc(Nc2c([N+](=O)[O-])cc([N+](=O)[O-])cc2[N+](=O)[O-])cc1	inactive: 5.52%
CP(=O)(Nc1ccccn1)Oc1ccc(Cl)cc1 (stereo not given)	inactive: 0.24%
O=[N+]([O-])c1cc([N+](=O)[O-])c(O)c([N+](=O)[O-])c1.c1ccc(Oc2ccncc2)cc1	inactive: -1.65%
CCOC(=O)c1ccc(NP(C)(=O)Oc2ccc(OC)cc2)cc1 (stereo not given)	inactive: -2.9%
CCOP(C)(=S)SCC(=O)NC(C)C(=O)O (stereo not given)	inactive: 0.21%
CN(Cc1cccnc1)C(=O)COc1ccc(Cl)c(Cl)c1.O=[N+]([O-])c1cc([N+](=O)[O-])c(O)c([N+](=O)[O-])c1	inactive: -0.45%
O=[N+]([O-])c1cc([N+](=O)[O-])c(-n2nnc3ccccc32)c([N+](=O)[O-])c1	inactive: 0.75%

SMILES	inhibition (reported as % activation of signal)
Cc1nc2ccc3ccccc3c2s1.O=[N+]([O-])c1cc([N+](=O)[O-])c(O)c([N+](=O)[O-])c1	inactive: 0.42%
O=[N+]([O-])c1cc([N+](=O)[O-])c(-c2cnn(-c3ccccc3)c2)c([N+](=O)[O-])c1	inactive: -5.71%
CCOC(=O)C(CC)C1=NC(C)(C)Cc2ccccc21.O=[N+]([O-])c1cc([N+](=O)[O-])c(O)c([N+](=O)[O-])c1 (stereo not given)	inactive: -0.61%
CC1=C2N=C(C=C3N=C(C(C)=C4[N-][C@@](C)([C@@H]5N=C1[C@](C)(CCC(=O)NC[C@@H](C)OP(=O)([O-])O[C@H]1[C@@H](O)[C@@H](n6cnc7cc(C)c(C)cc76)O[C@@H]1CO)[C@H]5CC(N)=O)[C@@](C)(CC(N)=O)[C@@H]4CCC(N)=O)[C@@](C)(CC(N)=O)[C@@H]3CCC(N)=O)C(C)(C)[C@@H]2CCC(N)=O.[C-]#N.[Co+3]	inactive: 15.3%
O=[N+]([O-])c1cc([N+](=O)[O-])c(Nc2nnnn2CCO)c([N+](=O)[O-])c1	inactive: -2.79%
CCCOc1ccc(NP(C)(=O)Oc2ccc(Cl)cc2)cc1 (stereo not given)	inactive: -2.8%
CP(=O)(Nc1ccc(SC(F)(F)F)cc1)Oc1ccccc1 (stereo not given)	inactive: 7.58%
CN1CCCCC1COC(=O)C1(O)c2ccccc2CCc2ccccc21 (stereo not given)	inactive: 2.63%
COc1ccccc1OP(C)(=O)Nc1c(C)cccc1C (stereo not given)	inactive: 2.07%
O=C(O)c1cccc(Nc2c([N+](=O)[O-])cc([N+](=O)[O-])cc2[N+](=O)[O-])c1	inactive: 1.98%
CC1=NCCc2c1[nH]c1ccccc21.O=[N+]([O-])c1cc([N+](=O)[O-])c(O)c([N+](=O)[O-])c1	inactive: -2.52%
CCOC(=O)c1ccc(NP(C)(=O)Oc2cc(C)cc(C)c2)cc1 (stereo not given)	inactive: -0.39%
Cc1cc(C)cc(OP(C)(=O)Nc2ccc(C)cc2C)c1 (stereo not given)	inactive: -0.41%
COc1ccccc1OP(C)(=O)Nc1cccc(Br)c1 (stereo not given)	inactive: 1.38%
Cc1ccc(C)c(NP(C)(=O)Oc2ccccc2)c1 (stereo not given)	inactive: 5.74%
Cc1cc(C)cc(OP(C)(=O)Nc2ccccn2)c1 (stereo not given)	inactive: 3.86%
CP(=O)(Nc1cccc(Br)c1)Oc1ccccc1 (stereo not given)	inactive: 0.01%
